Biological target: Aurora-2 (Homo sapiens (Human), UniProt O14965)
Test: Biochemical assay for inhibitors of Aurora-2 kinase activity
Details: 2.5 nM enzyme, 10 microM ATP, 8 microM substrate; read-out: Aur2 IC50 (μM) Biochemical assay

By UniProt entry, the sequences of proteins in these tests, tags left out.
UniProt O14965, whole entry, species assumed: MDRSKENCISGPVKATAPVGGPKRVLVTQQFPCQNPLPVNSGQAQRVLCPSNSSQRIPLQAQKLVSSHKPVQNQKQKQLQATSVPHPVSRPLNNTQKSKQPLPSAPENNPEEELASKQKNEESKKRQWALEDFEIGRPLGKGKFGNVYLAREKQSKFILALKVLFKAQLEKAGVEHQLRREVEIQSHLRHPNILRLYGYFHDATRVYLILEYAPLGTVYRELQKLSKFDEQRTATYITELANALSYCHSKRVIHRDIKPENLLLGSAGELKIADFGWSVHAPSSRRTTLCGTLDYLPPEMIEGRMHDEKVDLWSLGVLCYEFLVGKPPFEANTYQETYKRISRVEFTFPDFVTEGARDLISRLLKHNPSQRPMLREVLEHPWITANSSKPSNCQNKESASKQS

IC50: 3.23 µM
SMILES: CN1CCN(c2ccc(C(=O)Nc3n[nH]c4ccc(Cc5cc(F)cc(F)c5)cc34)c(NC3CCCCC3)c2)CC1 [Cpd 18, 2-Cyclohexylamino-N-[5-(3,5-difluoro-benzyl)-1H-indazol-3-yl]-4-(4-methyl-piperazin-1-yl)-benzamide]

— US9029356B2, “Substituted indazole derivatives active as kinase inhibitors” (Nerviano Medical Services S.R.L., priority 2007, dated 2015)
